From paper PMC9920749, “In Vitro and In Silico Studies of Neolignans from Magnolia grandiflora L. Seeds against Human Cannabinoids and Opioid Receptors” (Molecules, 2023)

Sequences of proteins named here, by UniProt entry; tags and fusion partners are left off.
UniProt P21554, whole entry: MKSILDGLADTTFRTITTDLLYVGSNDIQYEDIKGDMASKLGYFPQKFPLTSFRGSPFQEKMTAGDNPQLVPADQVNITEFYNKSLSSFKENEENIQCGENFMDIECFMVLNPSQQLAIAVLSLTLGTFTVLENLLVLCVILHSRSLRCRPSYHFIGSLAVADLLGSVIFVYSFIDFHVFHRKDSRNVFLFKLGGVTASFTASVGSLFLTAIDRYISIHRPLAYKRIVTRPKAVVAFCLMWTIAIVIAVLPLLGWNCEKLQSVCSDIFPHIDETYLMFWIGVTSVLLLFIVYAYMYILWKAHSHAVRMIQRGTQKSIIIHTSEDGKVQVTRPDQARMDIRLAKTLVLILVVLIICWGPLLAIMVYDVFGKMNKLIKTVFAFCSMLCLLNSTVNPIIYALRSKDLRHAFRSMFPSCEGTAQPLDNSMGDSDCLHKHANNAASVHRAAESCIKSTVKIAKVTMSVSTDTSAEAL

Target: T1, CB1R (Homo sapiens, UniProt P21554)
T1 construct: expressed in transfected cells; host or cells: HEK293 (ATCC), stably transfected; membrane preparation
Assay: Competitive radioligand binding assay, [3H]-CP55,940, HEK293 membranes
Conditions: 10 μM purified compounds and 2 + 3
Procedure: HEK293 cells stably transfected with δ, κ, and μ opioid subtypes were a generous gift from Roth Laboratories (University of North Carolina at Chapel Hill, NC, USA). Opioid cells were maintained as previously described. Membranes were made by washing the cells with cold PBS. The cells were then scraped in cold 50 mM Tris-HCl, pH 7.4 buffer. The solution was centrifuged at 5200× g for 10 min at 4 °C. Next, the supernatant was discarded, and the pellet was washed with more Tris-HCl buffer, homogenized via Sonic Dismembrator (Fisher Scientific, Pittsburgh, PA, USA) and then centrifuged at 24,000× g for 40 min at 4 °C. […] The total membrane protein concentration was measured using a Pierce BCA Protein Assay Kit (Thermo Scientific, Rockford, IL, USA) as per the manufacturer’s protocol.
Cannabinoid and opioid competitive radioligand binding assays were performed as previously described. […] Percent displacements were evaluated for all the cannabinoid and opioid subtypes with a triplicate of a fixed concentration (10 µg/mL for extracts and fractions, 10 μM for purified compounds). […] Radiodetection was measured with 50 µL (cannabinoid) or 25 µL (opioid) MicroScint^TM-20 on a TopCount NXT HTS Microplate Scintillation Counter (PerkinElmer, Waltham, MA, USA). The IC50 and Ki values were calculated by a non-linear curve fit model using GraphPad Prizm 5.0 software (GraphPad Software Inc., San Diego, CA, USA). […]

Structure (SMILES): C=CCc1ccc(O)c(-c2ccc(OC)c(CC=C)c2)c1 [Compound 1, 4-O-methylhonokiol]
- Cannabinoid Receptors (% Displacement) CB1: 91.3%
